According to ChEMBL document CHEMBL1157345, “Evaluation of indazole-based compounds as a new class of potent KDR/VEGFR-2 inhibitors” (Bioorg Med Chem Lett, 2008):

Assays:
[1] = Selectivity for KDR to JAK3
[2] = Selectivity for KDR to JAK2
[3] = Selectivity for KDR to aurora 2 kinase
[4] = Selectivity for KDR to cMet
[5] = Selectivity for KDR to p38alpha
[6] = Selectivity for KDR to Aurora 1
[7] = Selectivity for KDR to PI3K
[8] = Selectivity for KDR to Tie 2

Measured: Ratio

COc1cc2nccc(Oc3ccc4c(NC(=O)c5cccc(C(F)(F)F)c5)nn(C)c4c3)c2cc1OC
45: all assays above
